Results reported in ChEMBL document CHEMBL1157172, “Rational design, synthesis, and in vivo evaluation of the antileukemic activity of six new alkylating steroidal esters” (Bioorg Med Chem, 2008).
The source made the active and inactive calls. The rule behind the calls is not given here.

Columns and labels:
P388 = test: Antitumor activity in BDF1 mouse bearing P388 cells assessed as number of cured mouse at 5 mg/kg/day, ip after 90 days
L1210 = test: Antitumor activity in BDF1 mouse L1210 cells assessed as number of cured mouse at 5 mg/kg/day, ip after 90 days

Row | Compound | Activity (P388) | Activity (L1210)
1 | O=C(O)Cc1ccc(N(CCCl)CCCl)cc1 | inactive | inactive
2 | Cc1ccc(C(=O)O)cc1N(CCCl)CCCl | inactive | inactive
